# Binding of CDR-mutated scFvs to a peptide of the spike HR2 region

Data: MIT Lincoln Laboratory AlphaSeq set, Li et al. 2023, doi:10.1038/s41467-023-39022-2, as distributed in FLAb.

The target is the same throughout: PDVDLGDISGINAS, from the HR2 region of SARS-CoV-2 spike.

The variants keep the heavy chain, the linker and the frameworks of Ab-14 (scFv order VH, three GGGGS repeats, VL).
VH: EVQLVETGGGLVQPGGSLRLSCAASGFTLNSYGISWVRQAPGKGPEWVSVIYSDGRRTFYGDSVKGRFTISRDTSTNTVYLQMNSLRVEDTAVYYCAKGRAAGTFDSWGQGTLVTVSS
VL: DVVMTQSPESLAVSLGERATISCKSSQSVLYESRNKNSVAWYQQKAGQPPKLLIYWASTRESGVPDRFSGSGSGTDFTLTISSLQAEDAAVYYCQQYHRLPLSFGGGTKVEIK

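These sequences belong to a second round, designed from the earlier measurements on random variants of the parent. Their group label is 14L_GP_Gibbs (GP: Gaussian process model; Gibbs: Gibbs sampling; a sequence that several methods proposed may carry one label only). Affinity was read by AlphaSeq, a pooled yeast mating assay with surface-displayed partners. Mating (16 h, 30 °C) was followed by selection of diploids and sequencing of their barcodes. A regression on co-assayed BCL2-family reference pairs converts the normalised counts of each replicate to an apparent Kd. Each pool was mated in six replicate cultures.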

Each variant is given by its three light chain CDRs, as the data file delimits them; those of the parent are KSSQSVLYESRNKNSVA, WASTRES, QQYHRLPLS. Values are log10 of the apparent Kd in nM; lower means stronger binding. An entry "ND" has no value in the source: the pair was not observed among the diploids in that replicate. This suggests poor binding but is not conclusive. The parent sequence was in this pool as ten entries: three were never detected, three once, and four in most replicates, with averages from 0.34 to 2.37. The range of this assay differs from that of the first round, and the authors advise against merging the two. The authors averaged sequences with at least three values out of six and counted those with two or fewer as poor binders. Three control strains display no target. For all light chain designs, 4% of the pairings with them gave a signal, with a median of 2.64 and one signal in twenty below 1.59, so weak values seen in few replicates may be background. Also given: how often the same scFv was detected with the empty control strains, with their mean in brackets.

CDR-L1,CDR-L2,CDR-L3,"log10 Kd, replicates",signal with controls
KYEFSVLELSRNSNAVA,NASTREE,QQYHRLPLS,0.05 -0.04 -0.03 -0.32 -0.09 0.10,1 of 18 (5.11)
KFEWSWLYESRNCNSVA,NASTRES,QQYWRLPLS,0.29 0.29 0.39 0.28 0.22 0.55,2 of 18 (1.59)
KQSISGPYEDRNFNSVA,HASTRIS,QQYHRLPLS,0.76 0.63 0.54 0.41 0.56 0.83,2 of 18 (2.67)
KLQQLVLYGSRNKNSVA,QASTRMV,QAYHRLPLS,2.25 2.32 1.32 ND 1.61 ND,0 of 18
KQQISVDQESRQKNSVA,NASTRCE,QQYHRLPLS,0.26 0.46 0.27 0.00 0.20 0.27,1 of 18 (2.60)
KCQGSQLYESRNKNAVA,NASTRCD,QQYHRLPLS,-0.05 -0.13 -0.13 -0.23 0.04 0.07,2 of 18 (2.99)
KLSFGNLYESRNQNSVA,EASTRCQ,QQYHRLPLS,0.01 0.02 0.19 -0.16 -0.18 0.18,0 of 18
KVSQLELYESRNANNVA,NASQREN,QQYHRLPLS,0.05 0.05 0.10 -0.01 -0.07 0.29,0 of 18
KLMISVEYESRNQNSVA,SASYRED,QQYHRLPLS,1.15 0.66 1.18 0.95 1.31 1.23,0 of 18
KVSQSVLQGDRNKSSVA,EASTRER,QQYHRLPLS,ND 1.51 0.68 0.50 0.87 1.68,0 of 18
KISQSQLYEDRNHWSVA,NASTRLS,QQYHRLPLS,0.32 0.48 0.26 0.23 0.38 0.53,0 of 18
KIEQSMLYESRNKNSVA,NASTREV,QQYHRLPLS,-0.03 -0.18 -0.45 -0.36 -0.26 -0.22,1 of 18 (4.75)
KVSPSHLYWSRNKNSVA,NASTRET,QQYHRLPLS,0.30 0.44 0.42 0.38 0.05 0.57,1 of 18 (1.87)
KMSQEAMMLSRNKNSVA,QASTREQ,QQYHRLPLS,0.46 0.16 0.15 0.03 -0.04 0.26,0 of 18
KLSPSVNGQSRNKNSVA,EASTREQ,QDYHRLPLS,ND 1.42 ND 1.58 ND 2.33,0 of 18
KLMNSDLYESRNVNNVA,QASQREL,QQYHRLPLS,-0.01 -0.09 -0.08 -0.38 -0.24 -0.01,1 of 18 (2.21)
KWQQSVDYESRNKNSVA,NGQTREA,QQYHRLPLS,-0.24 -0.09 -0.30 -0.24 -0.97 -0.78,0 of 18
KFDQEWWYESRNKNSVA,MASQRCS,QQYHRLPLS,0.38 0.33 0.13 -0.04 0.00 0.57,0 of 18
KVQQSWEYESRNSNNVA,MGSTRED,QQYHRLPLS,0.25 0.27 0.01 0.00 -0.03 0.19,0 of 18
KLQQSCLYESRNPNSVA,NASYRSS,QQYHRLPLS,0.33 0.17 0.13 -0.02 -0.03 0.13,0 of 18
KMSQENDYEDRNSNSVA,HASTREM,QQYHRLPLS,0.92 0.72 1.76 1.04 0.96 1.27,0 of 18
KLSQSVLQESRNKNNVA,EASQRES,QQYHRLPLS,0.29 0.62 0.56 0.42 0.71 0.44,2 of 18 (3.53)
KVDQEWHYGSRNKNSVA,NASQRES,QQYHRLPLS,0.45 0.49 0.33 0.86 0.60 0.62,3 of 18 (3.04)
KLEFSALEESRNPNSVA,SASTRES,QDYHRLPLS,0.37 -0.12 -0.12 -0.15 -0.09 0.13,4 of 18 (2.56)
KWSCSVMLESRNWNAVA,EASTRES,QDYHRLPLS,1.15 ND ND 1.55 1.47 0.85,0 of 18
KMMQSQLYEDRMSNAVA,NASQRES,QQYHRLPLS,0.47 0.25 0.02 0.08 0.21 0.35,2 of 18 (2.47)
KVSQWWLYESRMKNAVA,NASTRCD,QQYHRLPLS,-0.03 -0.20 -0.32 -0.45 -0.16 0.19,0 of 18
KLSMSVLMEQRNKNSVA,SANTRME,QQYHRLPLS,0.15 0.08 0.11 -0.02 -0.03 0.09,1 of 18 (4.13)
KLSQEMLYESRMINSVA,NASQRES,QQYHRLPLS,0.40 0.30 0.46 0.47 0.77 0.37,1 of 18 (2.80)
KVSQSVMMGSRNKNSVA,NASQREQ,QQYHRLPLS,-0.09 -0.14 -0.15 -0.04 -0.20 0.24,1 of 18 (2.20)
KYSQSQLYEDRNVNSVA,NASQRMS,QQYHRLPLS,0.34 0.38 0.17 0.06 0.19 0.55,2 of 18 (2.78)
KLQWSWLMQSRMKNSVA,HASMRES,QQYHRLPLS,0.64 0.59 0.38 0.58 0.41 0.95,0 of 18
KFKPSFLYWSRNSNAVA,EASTRES,QQYHRLPLS,0.12 0.18 -0.17 -0.19 0.00 0.16,3 of 18 (3.04)
KLSMSELYESRNWNSVA,NASLRES,QDYHRLPLS,0.67 0.84 0.64 0.77 0.56 0.39,1 of 18 (2.71)
KLSQSVLGWSRNKNSVA,NASTRES,QQYHRLPLS,-0.05 -0.37 -0.27 -0.66 -0.48 -0.10,1 of 18 (2.36)
KQSQAVPYEQRNKNNVA,QGSTRES,QQYHRLPLS,-0.36 -0.26 -0.13 -0.41 -0.16 -0.14,0 of 18
KLSQSTLYEMRNTNSVA,QASQRLQ,QQYHRLPLS,0.04 -0.05 -0.08 -0.27 -0.37 0.01,0 of 18
KLMGSMLYEQRMKNSVA,QASTRMS,QQYHRLPLS,0.77 1.11 0.74 1.23 1.02 1.06,0 of 18
KLSWSVLLESRAKNSVA,NASTRES,QQYHRLPLS,0.13 -0.13 -0.07 -0.28 -0.20 0.13,1 of 18 (1.79)
KQSQSEGGESRNKNSVA,HASKRES,QQYHRLPLS,0.98 0.75 1.23 1.03 0.96 1.36,1 of 18 (2.97)
KMMQSQLYEDRASNAVA,NASQRES,QQYHRLPLS,-0.04 -0.09 -0.20 -0.13 -0.04 0.18,1 of 18 (3.57)
KLHQSVGYEERNKNSVA,GASQRES,QQYHRLPLS,0.32 -0.09 0.04 0.07 0.07 0.12,1 of 18 (2.08)
KIQQSVYYEDLNKNSVA,HASTRCD,QQYHRLPLS,0.63 0.25 0.37 0.27 -0.16 0.53,1 of 18 (1.74)
KISESWLYEPRNSNSVA,HASTRLQ,QQYHRLPLS,0.34 0.21 0.12 0.25 0.19 0.36,0 of 18
KISQSVLMESLNKNSVA,HASTRIW,QQYHRLPLS,0.93 0.93 0.48 0.86 0.72 0.51,2 of 18 (2.59)
KLSYSVMLESRNKNAVA,EASTRMS,QDYHRLPLS,0.38 0.61 0.50 0.34 0.18 0.41,0 of 18
KISQSWLYESRNINNVA,SCSQRES,QQYHRLPLS,1.09 1.58 1.12 1.02 1.33 1.21,2 of 18 (2.84)
KFPQSVWYQSRNKNSVA,DASTRES,QQYERLPLS,-0.39 -0.53 -0.46 -0.81 -0.54 -0.11,2 of 18 (2.01)
KLQYSNLYGSRNKNSVA,NASTRLQ,QQYHRLPLS,0.80 0.54 1.11 0.33 0.66 0.75,0 of 18
KVSMQVWYSSRNKNSVA,DANTRES,QQYHRLPLS,0.43 0.38 0.32 0.21 0.45 0.42,1 of 18 (3.19)
KASDGELYESRDDNSVA,NASKRLS,QQYHRLPLS,0.18 0.17 0.01 -0.39 0.00 0.04,0 of 18
KLQFSCLYESRNPNSVA,NASYRSS,QQYHRLPLS,0.65 1.68 0.91 1.54 0.74 2.08,0 of 18